# Source: PMC5797166, “A multidrug ABC transporter with a taste for GTP” (Scientific Reports, 2018)
# System: Nc1ncnc2c1ncn2[C@@H]1O[C@H](COP(=O)(O)OP(=O)(O)OP(=O)(O)O)[C@@H](O)[C@H]1O
# Experiment: purified protein
# Conditions: proteoliposomes of E. coli lipids, 10 mM MgCl2, pH 8, 37 °C, cooperative fit, nH 1.73
substance,measurement,value
PatA/PatB (Streptococcus pneumoniae R6),Km,2830 ± 500 µM
